{"source": "paper PMC6099574", "about": "“Synthesis, Design, and Structure–Activity Relationship of the Pyrimidone Derivatives as Novel Selective Inhibitors of Plasmodium falciparum Dihydroorotate Dehydrogenase” (Molecules : A Journal of Synthetic Chemistry and Natural …, 2018)", "molecular_target": "T1, PfDHODH (Phe158–Ser569) (Plasmodium falciparum, UniProt Q08210)", "T1 construct": "enzyme activity determination of PfDHODH (Phe158–Ser569) and hDHODH (Met30–Arg396); made in house", "experiment": "In vitro enzyme assay, PfDHODH (DCIP reduction)", "format": "biochemical", "experimental": "Protein expression, purification, and enzyme activity determination of PfDHODH (Phe158–Ser569) and hDHODH (Met30–Arg396) were performed according to our previous work. The enzymes were diluted to a final concentration of 10 nM using the assay buffer containing 50 mM HEPES (pH 8.0), 150 mM KCl, 0.1% Triton X-100 supplemented with 100 µM UQ0, and 120 µM DCIP. The mixture was transferred into a 96-well plate and incubated with or without various amounts of inhibitors for 5 min at room temperature, and then the dihydroorotate was added to a final concentration of 500 µM to initiate the reaction. The reaction was monitored by measuring the decrease in DCIP in the absorption at 600 nm at each 30 s over a period of 6 min. Brequinar and DSM1 were measured as the positive controls for hDHODH and PfDHODH, respectively. Percent inhibition relative to no inhibitor control was calculated by (1 − Vi/V0) × 100. For the determination of the IC50 value of the inhibitor, eight or nine different concentrations were applied. Each inhibitor concentration point was tested in triplicate, and the IC50 values were calculated using the sigmoidal fitting option of the program Origin 8.0 (Originlab, Northampton, MA, US).", "data": [{"smiles": "Cc1cc(Nc2ccc3ccccc3c2)n2ncnc2n1", "note": "[DSM1, reference compound]", "values": [{"measurement": "IC50", "result": "0.042 ± 0.004", "unit": "µM"}]}]}
